The results in this text go back to publication PMC7723054.

The list shows a part of the results.

B1: hsa-mir-181c (structured_RNA)
RNA: GGGAAUGUAGGGAUCUCCUCACCGCUGCGGUGUACGAAGUUUCAGCGAGUUUGGGCAGCUCAGGCAAACCGCUGAAGCUUCGUGCAC
B2: hsa-mir-6499 (structured_RNA)
RNA: GGGACGGAAUAGUAGCAGGCAUCGAGCGGGUGUACGAAGUUUCAGCUGCAGUUCUGUUGGGUGACAGCAGCUGAAGCUUCGUGCAC
B3: hsa-mir-3972 (structured_RNA)
RNA: GGGAGACUUUGUAAGGCGGUCUUAGGACGGUGUACGAAGUUUCAGCGCAGUCCUGUGGGAAUGAGAGAUGCCAAACUGGACCUGCGCUGAAGCUUCGUGCAC
B4: hsa-mir-329-1 (structured_RNA)
RNA: GGGACAUCUCCAAUUCAGCACGACCGGCGGUGUACGAAGUUUCAGCUGUUUCUUUAAUGAGGACGAAACAGCUGAAGCUUCGUGCAC
B5: hsa-mir-630 (structured_RNA)
RNA: GGGAAAGAGUGGAGCACCUUCUUAAUACGGUGUACGAAGUUUCAGCUAUUUUGUUAUUCUGGUCACAGAAUGACCUAGUAGCUGAAGCUUCGUGCAC
B6: hsa-mir-4253 (structured_RNA)
RNA: GGGAUGUACAAUCCUGCCCACGUACGGAGGUGUACGAAGUUUCAGCCCCUAGGACUUACUUGUGCAGGGGCUGAAGCUUCGUGCAC
B7: hsa-mir-4280 (structured_RNA)
RNA: GGGAUUCGUAGCAGACAAAGCGAGGUGCGGUGUACGAAGUUUCAGCGAGCCUUAAAGGAUGAGGUAGCUGAAGCUUCGUGCAC
B8: hsa-mir-1286 (structured_RNA)
RNA: GGGAACGGUACUGGACUUGAAAUACCGUGGUGUACGAAGUUUCAGCGGCUGCUGGAUUGAAUUAGCUGCAGCUGAAGCUUCGUGCAC
B9: hsa-mir-4650-1_4650-2 (structured_RNA)
RNA: GGGACACUAGCCGGCGCGAAGGUUAAUUGGUGUACGAAGUUUCAGCACCUUCCAAGGCUCAGAAGGUGCUGAAGCUUCGUGCAC
B10: hsa-mir-3684 (structured_RNA)
RNA: GGGAACAGUGACCUGAGGCCUAAUUGUUGGUGUACGAAGUUUCAGCUUAACAUGUUGAGCAUUACUCAUGUUAGGCUGAAGCUUCGUGCAC
B11: hsa-mir-23c (structured_RNA)
RNA: GGGAAAGGGCUACGGCGAAAGUGUCGUGGGUGUACGAAGUUUCAGCUGAGUGGCAUAAUCAGAGUACAAUUUGAGUCAUGCCCAUACAUCAGCUGAAGCUUCGUGCAC
B12: NEAT1_ParasoR_ID50 (structured_RNA)
RNA: GGGAAACGAAUGAUAAGGUAGAUUCCGUGGUGUACGAAGUUUCAGCGAAAUGUUCUAUUCAGUGGCUUUUAGUAUAUUUGCUAUGUUGUGCAACCAUCGACACUAUCCAUUUCUAGAACUUUUUCGCUGAAGCUUCGUGCAC
B13: PARIS_ID35 (structured_RNA)
RNA: GGGAAGACGUUAGAUGGACUCCGUGACCGGUGUACGAAGUUUCAGCGUGCUGCGGGGAUCUCUUUUGCAUCCCUCUGGGUGCAGAGCUGAGGCACCCAGAGGCAGUGUCCAGAGGAGGCAGCAUGCUGAAGCUUCGUGCAC

The target of the first assay is T1, LIN28A (human?, UniProt Q9H9Z2 1-209).
T1 sequence: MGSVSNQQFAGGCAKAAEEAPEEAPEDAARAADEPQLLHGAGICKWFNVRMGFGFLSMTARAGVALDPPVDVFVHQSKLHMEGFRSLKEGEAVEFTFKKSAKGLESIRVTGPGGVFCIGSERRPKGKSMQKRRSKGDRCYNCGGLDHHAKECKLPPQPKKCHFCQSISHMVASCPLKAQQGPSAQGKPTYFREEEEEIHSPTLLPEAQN
The assay is described as follows: FOREST: bead pull-down of RNA structure library v1, barcode microarray; U1A/LIN28A: 20 mM HEPES pH 7.5, 80 mM KCl, 20 mM NaCl, 10% glycerol, 2 mM DTT, 0.1 ug/uL BSA, 4 C; BG4/CIRBP/DHX36: 10 mM Tris-HCl pH 7.5, 100 mM KCl (or LiCl),; high values mean tight binding.
For B1, the binding signal came to 0.291 z-score.

For B2, the binding signal worked out at 0.275 z-score.

B3 came in with a binding signal of 0.273 z-score.

B4 gave a binding signal of 0.271 z-score.

As to B5, the binding signal stood at 0.32 z-score.

Molecule B6 showed a binding signal of 0.294 z-score.

The molecule B7 gave a binding signal of 0.319 z-score.

Turning to B8, the binding signal was 0.304 z-score.

Molecule B9 had a binding signal of 0.282 z-score.

B10 gave a binding signal of 0.28 z-score.

B11 returned a binding signal of 0.281 z-score.

B12 showed a binding signal of 0.273 z-score.

Molecule B13 registered a binding signal of 0.141 ± 0.235 z-score.

Another assay concerns the target T2, CIRBP (Homo sapiens, UniProt Q14011 1-172).
T2 sequence: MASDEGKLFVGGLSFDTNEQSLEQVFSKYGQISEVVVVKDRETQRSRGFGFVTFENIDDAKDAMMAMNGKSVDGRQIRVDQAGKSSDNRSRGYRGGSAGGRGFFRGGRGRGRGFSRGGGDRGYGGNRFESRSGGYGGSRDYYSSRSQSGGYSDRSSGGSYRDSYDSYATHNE
Described as above.
Turning to B1, the binding signal is 0.209 z-score.

B2 yielded a binding signal of 0.368 z-score.

B3 returned a binding signal of -1.45 z-score.

The molecule B4 came in with a binding signal of 0.321 z-score.

B5 returned a binding signal of 1.66 z-score.

Take B6: the binding signal is -1.27 z-score.

For the molecule B7, the binding signal is -0.236 z-score.

Regarding B8, the binding signal is -0.276 z-score.

B9: the binding signal came out at 0.188 z-score.

B10 gave a binding signal of 1.13 z-score.

In the case of B11, the binding signal turned out to be 2.24 z-score.

On to B12, for which the binding signal was -0.0829 z-score.

With B13, the binding signal is -0.285 ± 0.24 z-score.

A further assay deals with T3, DHX36 (Homo sapiens, UniProt Q9H2U1 1-1008).
T3 sequence: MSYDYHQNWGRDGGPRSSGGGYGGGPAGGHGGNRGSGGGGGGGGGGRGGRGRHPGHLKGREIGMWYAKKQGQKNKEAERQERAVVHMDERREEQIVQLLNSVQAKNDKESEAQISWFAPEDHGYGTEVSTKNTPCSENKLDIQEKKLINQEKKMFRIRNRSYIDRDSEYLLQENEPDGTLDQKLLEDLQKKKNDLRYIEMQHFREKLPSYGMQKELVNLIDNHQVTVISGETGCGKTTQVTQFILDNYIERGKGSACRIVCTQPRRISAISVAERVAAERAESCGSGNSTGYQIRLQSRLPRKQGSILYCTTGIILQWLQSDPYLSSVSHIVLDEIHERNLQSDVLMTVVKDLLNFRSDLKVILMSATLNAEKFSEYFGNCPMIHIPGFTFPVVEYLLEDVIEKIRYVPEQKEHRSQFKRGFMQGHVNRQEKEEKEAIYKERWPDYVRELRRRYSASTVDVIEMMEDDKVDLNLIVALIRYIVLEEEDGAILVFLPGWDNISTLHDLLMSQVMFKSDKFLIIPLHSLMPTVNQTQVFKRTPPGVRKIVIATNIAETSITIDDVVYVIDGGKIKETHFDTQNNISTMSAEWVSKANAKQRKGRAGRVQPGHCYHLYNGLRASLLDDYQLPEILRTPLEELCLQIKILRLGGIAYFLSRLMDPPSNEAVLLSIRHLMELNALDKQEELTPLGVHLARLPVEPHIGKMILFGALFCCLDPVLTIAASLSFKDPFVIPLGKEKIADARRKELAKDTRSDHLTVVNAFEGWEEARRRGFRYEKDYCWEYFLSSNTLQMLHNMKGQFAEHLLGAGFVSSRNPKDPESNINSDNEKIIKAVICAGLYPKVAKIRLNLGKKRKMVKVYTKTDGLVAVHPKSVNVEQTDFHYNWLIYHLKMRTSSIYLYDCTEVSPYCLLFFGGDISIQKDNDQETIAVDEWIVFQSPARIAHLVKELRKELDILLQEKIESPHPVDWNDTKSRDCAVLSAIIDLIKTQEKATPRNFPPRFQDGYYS
The description is as above.
For the molecule B1, the binding signal came to 0.0973 z-score.

With B2, the binding signal is -0.0979 z-score.

In the case of B3, the binding signal turned out to be 0.743 z-score.

B4 returned a binding signal of -0.533 z-score.

B5 yielded a binding signal of -0.291 z-score.

As for B6, the binding signal was 0.426 z-score.

In turn, B7 displayed a binding signal of -0.115 z-score.

Molecule B8 yielded a binding signal of 0.346 z-score.

Molecule B9 registered a binding signal of 0.911 z-score.

In the case of B10, the binding signal was -0.29 z-score.

Regarding B11, the binding signal amounted to 0.823 z-score.

In turn, B12 gave a binding signal of -1.17 z-score.

For B13, the binding signal is -0.112 ± 0.609 z-score.
